Experimental findings from patent US20090181953A1, “COMPOUND FORMS AND USES THEREOF” (WYETH, priority 2008, published 2009) are described below.

The series in a line: hygroscopicity, Dynamic Vapor Sorption (DVS). It counts as physicochemical. Here is the method: Salt forms of a compound of formula 1 were investigated with X-ray powder diffraction, DSC, TGA and microscopy. FIG. 1 illustrates X-ray patterns observed for various salt forms. FIGS. 2 and 3 present results of thermal studies performed on such salt forms. FIGS. 4 and 5 present DVS data of sulfuric and phosphoric salts. […] FIGS. 6-12 show characterization data for hydrochloride salt forms.
Dynamic Vapor Sorption (DVS) was done at 25-26° C.

Take Phosphoric acid: the “Hygroscopicity (in words)” value is listed as “non-hygroscopic” and the “water held at 50% RH” value is “holds about 2%”. For the same substance, where the note is “listed as phosphate salt form”, the “water held at 50% RH” value was “about 2%”. In addition, under “listed as phosphoric salt form”, the “water held at 50% RH” value is given as “about 2%”. In addition, the “RH at which moisture pick-up starts” value (relative humidity) was “Starts at 10% and”.
